This is an account of results in PubChem BioAssay AID720706 (Broad Institute, 2013).

Only a part is listed here, and it is no random draw. Some of these compounds have results that are not shown, active ones among them. Calls of active or inactive are those of the source.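 How the source made its calls: active means significant combined selectivity score with lowered wild-type GFP, culture density cut under 30%, mutant RFP and density less affected; inactive means any of these conditions unmet.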

This assay can be described thus: reduced GFP signal of wild-type E. coli, primary screen, bacterial rRNA inhibitor project, GFP/RFP fluorescence, OD600, single point (AID 720706). The settings on record: E. coli WT GFP vs humanized-ribosome RFP mutants, 24 h, hits give low values, DMSO median 0, no signal -100.
For the compound `CN1[C@@H]2CC[C@H]1CC(OC(=O)C(O)(c1ccccc1)c1ccccc1)C2` (stereo partly specified), the GFP signal change (wild-type ribosome) was inactive: 8.56%. Consider `O=C(NCC1(N2CCCCC2)CCCCC1)c1cc([N+](=O)[O-])ccc1Cl`, for which the GFP signal change (wild-type ribosome) was inactive: 3.66%. To `Cc1ccc(C(=O)NCC2(N3CCCCC3)CCCCC2)cc1` belongs inactive: 5.95%; to `CCN(CC)CC(C)C(C)OC(=O)C(O)(c1ccccc1)c1ccccc1` (stereo unspecified), inactive: 14.8%.

Consider `COc1cc(SC)ccc1C(=O)NCC1(N(C)C)CCCCC1`, for which the GFP signal change (wild-type ribosome) was inactive: 11.6%. `Cc1ccccc1C(=O)NCC1(N2CCCCC2)CCCCC1`: the GFP signal change (wild-type ribosome) is inactive: 6.95%. As to `CN(C)c1ccc(C(=O)NCC2(N(C)C)CCCCC2)cc1`, the GFP signal change (wild-type ribosome) is inactive: 4.64%. Regarding `COc1ccc(C(=O)NCC2(N(C)C)CCCCC2)cc1`, the GFP signal change (wild-type ribosome) was inactive: 6.92%. To `Cc1cc(C(=O)NCC2(N3CCCCC3)CCCCC2)ccc1[N+](=O)[O-]` belongs inactive: 12.2%; to `O=C(NCC1(N2CCCCC2)CCCCC1)c1cccc(Br)c1`, inactive: 3.6%. Take `C=CCN1CCN(CCOC(=O)C(O)(c2ccccc2)c2ccccc2)CC1`: the GFP signal change (wild-type ribosome) was inactive: 24.6%.

In the case of `O=C(NCC1(N2CCCCC2)CCCCC1)c1cc(F)c(F)cc1Cl`, the GFP signal change (wild-type ribosome) is inactive: 4.64%.

With `COc1cc(C(=O)NCC2(N(C)C)CCCCC2)c([N+](=O)[O-])cc1OC`, the GFP signal change (wild-type ribosome) is inactive: 17.6%. To `CN(C)C1(CNC(=O)c2ccc(Br)cc2)CCCCC1` belongs inactive: 12.9%; to `O=C(NCC1(N2CCCCC2)CCCCC1)c1cccc(Cl)c1`, inactive: 2.96%; to `COc1cccc(C(=O)NCC2(N3CCCCC3)CCCCC2)c1`, inactive: 7.29%. To `COc1ccc(Cl)cc1C(=O)NCC1(N(C)C)CCCCC1` belongs inactive: 6.75%; to `CC(C)Oc1ccc(C(=O)NCC2(N(C)C)CCCCC2)cc1`, inactive: 5.68%; to `O=C(OCCN1CCCC1)C(O)(c1ccccc1)c1ccccc1`, inactive: 8.6%. To `C=C(C)C#CC(O)(C(=O)OC1CCN(C)CC1)c1ccccc1` (stereo unspecified) belongs inactive: 6.83%; to `COc1ccc(Br)c(C(=O)NCC2(N3CCCCC3)CCCCC2)c1`, inactive: 4.83%.
